Data from patent US7622265B2, “Methods and compositions for modulating prostasin” (Genentech, Inc., priority 2005, dated 2009).

Chains of the proteins cited; added tags and fusions are not shown. Residues count along the entry.
UniProt Q16651, 45-322 limits assumed: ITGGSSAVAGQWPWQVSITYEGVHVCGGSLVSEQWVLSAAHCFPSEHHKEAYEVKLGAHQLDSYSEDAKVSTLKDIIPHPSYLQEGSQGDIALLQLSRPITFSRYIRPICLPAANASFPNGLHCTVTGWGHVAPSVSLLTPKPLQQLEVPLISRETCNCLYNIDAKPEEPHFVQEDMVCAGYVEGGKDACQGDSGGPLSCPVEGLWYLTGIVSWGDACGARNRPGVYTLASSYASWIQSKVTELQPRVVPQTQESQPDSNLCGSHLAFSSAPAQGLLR

Target: T1, prostasin (Homo sapiens, UniProt Q16651)
T1 construct: made in house; host or cells: CHO cells (transient transfection, pRK5E); purified from conditioned medium on aprotinin-agarose
Test: Enzyme inhibition assay (amidolytic activity of prostasin towards S2765)
Format: biochemical
Conditions: prostasin 3 nM
Description: The increase in absorbance at 405 nm was monitored on a kinetic microplate reader (Molecular Devices, Sunnyvale, Calif.). The linear rates of the increase in absorbance were expressed as percentage activities (100%×vi/v0). […] At least three independent experiments were performed for each inhibitor.

IC50 (substrate S2765 0.05 mM, TT buffer, 20 min preincubation at room temperature, averages ± S.D. of at least three independent experiments, read-out: IC50 (nM), effects of inhibitors on the activity of prostasin)	Substance	inhibition of prostasin enzymatic activity (in words) (substrate S2765)
1.2 ± 0.1 nM	Aprotinin [reference compound]	–
–	KD1: N-terminal Kunitz domain of HAI-1B, amino acids Thr246-Val303 of HAI-1B precursor, expressed in E. coli (SEQ ID NO:2) (TEDYCLASNKVGRCRGSFPRWYYDPTEQICKSFVYGGCLGNKNNYLREEECILACRGV; listed as Homo sapiens)	significantly more potent prostasin inhibitor than sHAI-1B
